Apparent affinities of Ab-14 variants for a coronavirus HR2 peptide

Target: peptide PDVDLGDISGINAS, taken from heptad repeat 2 (HR2) of SARS-CoV-2 spike.

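The starting antibody came from a phage panning campaign against this peptide. Library AAYL50 holds single substitutions and randomly drawn double and triple substitutions in the CDRs. The assay is AlphaSeq: two haploid yeast populations carry antibody and antigen on their surface. Mating (16 h, 30 °C) was followed by selection of diploids and sequencing of their barcodes. Scores were corrected for input abundance and mapped to Kd with protein pairs of known affinity run in the same pool. Each pool was mated in three replicate cultures.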

Ab-14 is the parent antibody, in scFv form: VH, then a 15-residue (Gly4Ser)3 linker, then VL. The heavy chain is unchanged in all variants.
VH: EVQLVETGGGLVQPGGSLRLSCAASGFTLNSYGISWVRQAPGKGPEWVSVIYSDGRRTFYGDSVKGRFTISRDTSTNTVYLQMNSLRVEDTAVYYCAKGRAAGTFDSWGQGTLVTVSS
VL: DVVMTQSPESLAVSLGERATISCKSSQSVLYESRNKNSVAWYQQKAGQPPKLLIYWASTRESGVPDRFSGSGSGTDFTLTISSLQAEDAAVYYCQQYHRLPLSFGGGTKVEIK

Changes read parent residue, position, new residue, counted from the first residue of the VL shown. All variants listed here change S58 of the VL, counted from its first residue. The Kd shown is the geometric mean over detected replicates; a lower Kd is a better binder. An entry "no signal" has no value in the source: the pair was not observed among the diploids in any replicate. This suggests poor binding but is not conclusive. For reference, the parent read 4.4 nM as the reference entry and 48 nM as a member of this library. Nonspecific signal, from three strains lacking the peptide, appeared in 18% of pairings of library AAYL50, centred on 15 µM (5% of these signals below 970 nM); values are not corrected for it.

For K36P+S58T+Q96D, the assay gave 10 nM (3 of 3 replicates). Variant S58M+Y97W gave 76 µM (1 of 3 replicates). For K24W+S58E+R99L, the assay gave no signal (0 of 3 replicates). With S58Q+Y97V+R99A the result was no signal (0 of 3 replicates). Variant V29D+S58V+S103A gave 18 nM (3 of 3 replicates). Variant K24T+S58C+R60V showed 130 µM (1 of 3 replicates). Variant V39K+S58Y+R60K gave 18 µM (2 of 3 replicates). Variant S58G+Q96H+L102W gave no signal (0 of 3 replicates).

With S58K+E61R+S103C the result was 11 µM (1 of 3 replicates). With K24Y+E32M+S58D the result was 1.5 µM (3 of 3 replicates). For A40P+S58K+L100S, the assay gave 3.1 µM (1 of 3 replicates). With S25F+V39I+S58F the result was 12 nM (3 of 3 replicates). For S28R+R34Q+S58V, the assay gave 65 nM (3 of 3 replicates). With N37Q+A40I+S58E the result was 56 µM (2 of 3 replicates). With A40L+S58T+Y97R the result was no signal (0 of 3 replicates). Variant N35D+W56K+S58T showed 2.6 nM (3 of 3 replicates).

Variant K36R+S58Q+Q95I gave no signal (0 of 3 replicates). For L30T+S58V+H98A, the assay gave 17 nM (3 of 3 replicates). For A57W+S58T+E61P, the assay gave 4.7 µM (1 of 3 replicates). For E32I+S58C, the assay gave 9.9 µM (1 of 3 replicates). Variant S38Y+S58T+S62H gave no signal (0 of 3 replicates). Variant S58K+T59L+E61H gave no signal (0 of 3 replicates). With R34M+S58P the result was no signal (0 of 3 replicates). With S25Q+S58C+H98F the result was 1.5 µM (3 of 3 replicates).

Variant N35G+S58L+P101R showed 260 nM (3 of 3 replicates). Variant N37L+S58G+L100P gave 14 µM (2 of 3 replicates). For Y31P+A40C+S58C, the assay gave 9.0 µM (2 of 3 replicates). With S58N the result was 5.2 µM (3 of 3 replicates). With S58G+T59I+L102C the result was 3.2 µM (1 of 3 replicates). With W56S+S58A the result was 16 nM (3 of 3 replicates).

A selection of 3 entries from above:

changes,Kd (apparent),replicates with signal
S58Q+Y97V+R99A,no signal,0/3
L30T+S58V+H98A,17 nM,3/3
E32I+S58C,9.9 µM,1/3

Reference: Engelhart et al. 2022, doi:10.1038/s41597-022-01779-4. File: FLAb, binding data.